Screens deposited in PubChem BioAssay by Broad Institute.
Sampled rows, rich in hits. Any-hit rate of the full collection: about 1.2%.
C2C12 statin: suppression of simvastatin myotoxicity; C2C12 myotubes + simvastatin, ATP luminescence, 48 h; scaled: DMSO 0, geranylgeraniol control 100; rescue of ATP level, % at 7.49 µM; 330,000 tested, 0.78% active;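 active = mean ATP rescue above about 67%, or every replicate alone reaching that limit, limit read from the data, passing the limit was not always enough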;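 note: myotubes were challenged with 10 µM simvastatin during compound exposure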
miR122 inh: inhibitors of miR-122 in Huh7 cells. activation (reporter increase), % at 12.5 µM. Huh7 miR-122 Renilla luciferase sensor, 48 h; neutral wells = 0, positive control = 100. 340,000 tested, 0.3% active;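 active = mean replicate activation score at least 90 and every replicate individually at or above 90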;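 note: higher luciferase means less miR-122 activity so hits act as miR-122 inhibitors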
Cneo AK release: causes C. neoformans cell lysis | adenylate kinase release luminescence, 4 h; normalised: neutral wells 0, clomiphene wells 100 | lysis activity, % at 15 µM | 360,000 tested, 0.2% active;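 active = mean lysis activity across replicates of at least 80%, whatever share of replicates individually reach that level; inactive = mean lysis activity below 80%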
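Material: C. neoformans cells; Schedule: 4 h static compound exposure, 37 °C, read 1 h post-reagent; Measured by: adenylate kinase release luminescence; Read-out: signal increase indicating cell lysis; Controls: Clomiphene as positive lysis control.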
UUG fidelity: alters start codon recognition fidelity in yeast. S. cerevisiae UUG-firefly luciferase reporter, luminescence/redox ratio. 350,000 tested, 0.13% active. activity score, % at 18.7 µM. AID 602363;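 active means replicate mean at a twofold rise or more, about +100% in these data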;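 further: firefly luciferase made from a UUG start codon reports start codon fidelity; reporter light over untreated wells divided by growth signal over untreated wells; some hits fall short of that in this replicate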
Glyco luc inh: N-linked glycosylation inhibition | D54 ERlucT glycosylation luciferase reporter, 24 h; percent of 100 nM tunicamycin response | reporter increase, % at 12.5 µM | 360,000 tested, 0.23% active | AID 588692;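 active = mean luciferase reporter signal, scaled so untreated is 0 and the glycosylation-blocking control 100, at or above a set limit in every replicate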;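 note: luciferase carries N-glycosylation sites so blocking glycosylation raises the light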
Each line names hits and unclear results; the compound was inactive in the other large screens.

Nc1nonc1C(=O)N/N=C/c1ccc(-c2cccc([N+](=O)[O-])c2)o1	C2C12 statin 175.5
CN(Cc1ccccc1)S(=O)(=O)c1ccc(NC(=S)NC(=O)C2CCCC2)cc1	miR122 inh 123.7
CSCCC(NC(=O)C1CCC(C)CC1)C(=O)NCCN1CCC(C)CC1 (stereo not drawn)	none (no result: C2C12 statin, miR122 inh, Cneo AK release, UUG fidelity)
C[C@H]1CN([C@@H](C)CO)C(=O)c2cccc(N(C)C)c2O[C@@H]1CN(C)Cc1ccc2c(c1)OCO2	none (no result: Glyco luc inh)
CCn1cc(S(=O)(=O)CC(=O)Nc2ccc(C)cc2)c2ccccc21	miR122 inh 98.5
COc1cccc(NC(=O)CCN2CCN(c3ccccc3F)CC2)c1	C2C12 statin 77.6
C[C@@H]1CCCCO[C@@H](CN(C)C(=O)Nc2ccc3c(c2)OCO3)[C@H](C)CN([C@H](C)CO)C(=O)c2cc(NS(=O)(=O)c3ccccc3)ccc2O1	none (no result: C2C12 statin, Glyco luc inh)
CO[C@@H]1CN(C)C(=O)c2ccc(NC(=O)c3cccnc3)cc2OC[C@@H](C)N(CC2CC2)C[C@H]1C	none (no result: miR122 inh, UUG fidelity, Glyco luc inh)
CCN1C(=O)CCN(C2CCCC2)c2nc(Nc3ccc(C(=O)NC4CCN(C)CC4)cc3OC)ncc21	Glyco luc inh 55.0
COc1cc(/C=C/C(=O)c2ccc3c(c2)OCO3)cc(OC)c1OC	none (no result: miR122 inh)
COC(=O)c1ccc(/C=C/C(=O)c2ccc(OC)c(OC)c2)cc1	Glyco luc inh 62.4
CCOc1ccc(C(=O)/C=C/c2cc(OC)c(OC)c(OC)c2)cc1	none
COc1ccc(C(=O)/C=C/c2ccc(OC(=O)c3cc(OC)c(OC)c(OC)c3)cc2)cc1	Glyco luc inh 42.3
COc1cc(/C=C/C(=O)c2ccc3c(c2)OCCO3)cc(OC)c1OC	Glyco luc inh 42.1 (no result: miR122 inh)
COc1ccc(/C=C/C(=O)c2ccc(C(=O)/C=C/c3ccc(OC)c(OC)c3)cc2)cc1OC	none
O=C(C[C@H]1CC[C@@H]2[C@H](COC[C@@H](O)CN2C(=O)Nc2ccc(F)cc2)O1)NC1Cc2ccccc2C1	none (no result: Glyco luc inh)
COc1cccc(C(=O)Nc2ccc3c(c2)C(=O)N(C)[C@H]2CC[C@@H](CC(=O)NCc4ccc(F)cc4)O[C@@H]2CO3)c1	none (no result: Glyco luc inh)
COc1ccccc1NC(=O)COC(=O)CCC(=O)c1cccs1	none
Cc1ccc(C(O)CN2C3=NCCN3c3ccccc32)cc1 (stereo not drawn)	C2C12 statin 121.4
OC(CN1C2=NCCN2c2ccccc21)c1ccccc1 (stereo not drawn)	none
Cn1cnc(S(=O)(=O)N2C[C@H](O)COC[C@@H]3O[C@@H](CC(=O)NCc4cccc(F)c4)CC[C@H]32)c1	none (no result: Glyco luc inh)
Cc1cc(NC(=O)CSc2nc3ccsc3c(=O)n2Cc2ccccn2)n[nH]1	C2C12 statin 93.1
COc1cc(OC)cc(C(=O)N2CCN(C(=O)c3ccc(OC)c(OC)c3)CC2)c1	none (no result: C2C12 statin)
COc1ccc(-c2n[nH]c3c2CN(C(=O)c2ccc(OC)c(OC)c2)CC3)cc1	Glyco luc inh 39.3
C[C@@H]1CN([C@H](C)CO)C(=O)c2cc(-c3ccc(F)cc3)cnc2O[C@@H]1CN(C)Cc1cncnc1	none (no result: Glyco luc inh)
COc1ccc(CN(C)C[C@H]2OCCCC[C@H](C)Oc3ccc(NC(=O)Nc4ccccc4)cc3C(=O)N([C@H](C)CO)C[C@@H]2C)cc1	none (no result: C2C12 statin, Glyco luc inh)
CCNc1nc(SCc2ccccc2)nc(N2CCOCC2)n1	C2C12 statin 98.5
Clc1ccc(CNc2nc(N3CCOCC3)nc(N3CCOCC3)n2)cc1	miR122 inh 128.8
O=C(CN(C1CC1)S(=O)(=O)c1ccc(S(=O)(=O)NC2CCCCC2)cc1)Nc1ccccc1	none (no result: C2C12 statin)
O=C(CN(Cc1cccs1)S(=O)(=O)c1ccc(S(=O)(=O)NC2CCCCC2)cc1)Nc1ccccc1	miR122 inh 132.1 (no result: C2C12 statin)
COCCNC(=O)C[C@@H]1CC[C@@H](NS(=O)(=O)c2ccc(C)cc2)[C@H](CO)O1	none (no result: miR122 inh, Glyco luc inh)
CCC(=O)N[C@@H]1C=C[C@H](CC(=O)NCC2CCCCC2)O[C@H]1CO	Cneo AK release 87.1 (no result: Glyco luc inh)
O=C(NC1CCCCC1)N[C@H]1C=C[C@@H](CC(=O)N2CCOCC2)O[C@@H]1CO	Cneo AK release 92.9 (no result: miR122 inh, UUG fidelity, Glyco luc inh)
C=CCSc1nc(=O)n2ccccc2n1	C2C12 statin 100.1
COCc1cc(C)nc(N2CCN(c3ccccc3)CC2)c1C#N	none
COCc1cc(C)nc(N2CCN(Cc3ccccc3)CC2)c1C#N	C2C12 statin 105.7
Cc1cc(C)c(C#N)c(SCC(=O)N2CCN(Cc3ccccc3)CC2)n1	C2C12 statin 140.4
CC[C@]12c3[nH]c4ccccc4c3CCN1C(=O)C(CC(=O)NCCCn1ccnc1)C[C@@H]2C(=O)N1CCN(C(=O)c2ccco2)CC1 (stereo partly drawn)	none
Cc1nc(-c2ccccc2)sc1-c1nc(-c2ccncc2)ncc1S(=O)(=O)c1ccccc1	Glyco luc inh 57.1 (no result: C2C12 statin)
CCOC(=O)N1CCN(c2ncnc3c2oc2nc(C(C)C)c4c(c23)CCC4)CC1	miR122 inh 206.8
CC(C)Cc1nc2oc3c(N4CCN(CCO)CC4)ncnc3c2c2c1CCCC2	none
O=C(NCc1ccco1)C(c1ccccc1)N(C(=O)Cc1cccs1)c1ccccc1F (stereo not drawn)	C2C12 statin 97.5 (no result: miR122 inh)
CCC(=O)c1cc2c(cc1NC(=O)c1ccc(C)cc1)OCCO2	none (no result: Cneo AK release, UUG fidelity)
CCCc1cc2c(cc1NC(=O)c1ccc(C)cc1)OCO2	C2C12 statin 91.5 (no result: Cneo AK release, UUG fidelity)
CCN(CC)c1ccc(/C=C2\C(=O)N(c3nnc(C)c(=O)[nH]3)N=C2C)cc1	Glyco luc inh 43.1
Cc1cccc(CN2CCN(C3CN(C4CCCCC4)S(=O)(=O)C3)CC2)c1 (stereo not drawn)	none
CCN(CC)CCCNc1cc(C)c(C#N)c2nc3ccccc3n12	Glyco luc inh 42.8
CCN1C(=O)c2cccc3c(S(=O)(=O)NCCc4c[nH]c5ccccc45)ccc1c23	miR122 inh 497.5
Cc1noc(C)c1NC(=O)N(C)C[C@H]1Oc2ccc(NC(=O)NC3CCCCC3)cc2C(=O)N([C@H](C)CO)C[C@H]1C	none (no result: Glyco luc inh)
CCCn1c(/C=C/c2ccccc2)nc2ccccc21	none (no result: miR122 inh)
CC(C)n1c(/C=C/c2ccccc2)nc2ccccc21	miR122 inh 192.0
COc1cc(NC(=O)[C@H]2CSCN2C(=O)[C@@H]2CCC(=O)N2)cc(OC)c1OC	none
CC(C)c1ccc(NC(=O)[C@H]2CSCN2C(=O)[C@@H]2CCC(=O)N2)cc1	C2C12 statin 109.5
CC(C)NC(=O)Nc1ccc2c(c1)C(=O)N([C@H](C)CO)C[C@H](C)[C@@H](CN(C)C)OCCCC[C@@H](C)O2	none (no result: C2C12 statin, UUG fidelity, Glyco luc inh)
Cc1ccc(NC(=O)C(=S)NCc2ccco2)cc1	C2C12 statin 135.4
Cc1ccc(NC(=O)CSCC(=O)NCc2ccco2)cc1	none (no result: miR122 inh, Cneo AK release, UUG fidelity)
C[C@H](CO)N1C[C@H](C)[C@H](CN(C)C(=O)NC2CCCCC2)Oc2c(NS(=O)(=O)c3cn(C)cn3)cccc2C1=O	none (no result: Glyco luc inh)
Cc1ccc(N2C(=O)CCSC23C(=O)Nc2ccccc23)cc1 (stereo not drawn)	none
COc1ccc(N2C(=O)CSC23C(=O)Nc2ccccc23)cc1 (stereo not drawn)	C2C12 statin 109.6
